Experimental data: ChEMBL document CHEMBL2203210, “SAR and in vivo evaluation of 4-aryl-2-aminoalkylpyrimidines as potent and selective Janus kinase 2 (JAK2) inhibitors” (Bioorg Med Chem Lett, 2012)

Protein sequences, listed by entry. Tags and fused reporters are not part of them. Lines headed by an entry give the natural chain unless they say otherwise; changes in a name come on top.
UniProt O60674: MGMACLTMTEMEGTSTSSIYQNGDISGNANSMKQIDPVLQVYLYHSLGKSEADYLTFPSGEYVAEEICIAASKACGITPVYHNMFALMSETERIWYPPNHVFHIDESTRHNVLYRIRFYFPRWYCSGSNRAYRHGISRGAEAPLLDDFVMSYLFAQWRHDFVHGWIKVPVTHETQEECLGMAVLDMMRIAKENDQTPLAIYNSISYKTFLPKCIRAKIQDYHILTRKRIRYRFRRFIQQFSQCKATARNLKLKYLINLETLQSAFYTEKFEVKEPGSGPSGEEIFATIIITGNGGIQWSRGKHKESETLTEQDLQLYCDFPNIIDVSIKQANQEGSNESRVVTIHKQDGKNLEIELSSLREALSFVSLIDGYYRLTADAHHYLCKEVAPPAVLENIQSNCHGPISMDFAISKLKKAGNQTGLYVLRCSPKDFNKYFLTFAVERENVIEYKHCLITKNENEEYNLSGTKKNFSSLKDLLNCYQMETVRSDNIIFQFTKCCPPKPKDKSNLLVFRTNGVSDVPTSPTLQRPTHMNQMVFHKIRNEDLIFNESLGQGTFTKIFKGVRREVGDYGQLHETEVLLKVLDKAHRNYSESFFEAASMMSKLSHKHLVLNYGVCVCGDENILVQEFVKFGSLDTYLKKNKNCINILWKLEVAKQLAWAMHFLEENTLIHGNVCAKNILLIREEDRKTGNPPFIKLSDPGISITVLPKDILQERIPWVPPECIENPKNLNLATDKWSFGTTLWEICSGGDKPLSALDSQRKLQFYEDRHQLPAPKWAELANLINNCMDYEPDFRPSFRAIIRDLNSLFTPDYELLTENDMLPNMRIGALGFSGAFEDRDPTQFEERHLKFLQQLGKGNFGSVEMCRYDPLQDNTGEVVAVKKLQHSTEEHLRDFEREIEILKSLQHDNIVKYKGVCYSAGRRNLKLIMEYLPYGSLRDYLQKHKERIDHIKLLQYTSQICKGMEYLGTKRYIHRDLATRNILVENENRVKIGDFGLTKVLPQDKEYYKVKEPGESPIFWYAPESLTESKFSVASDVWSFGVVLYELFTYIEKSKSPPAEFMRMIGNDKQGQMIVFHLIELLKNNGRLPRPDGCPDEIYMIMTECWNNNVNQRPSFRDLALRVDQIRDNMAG

Target: Tyrosine-protein kinase JAK2 (Homo sapiens, UniProt O60674)

In the case of `CC(=O)Nc1ccc(-c2ccnc(Nc3ccc(N4CCOCC4)cc3)n2)cc1`, the IC50 is reported as 3.6 nM.
